One may read the IC50 as the concentration needed to halve the response being measured. A low value points to greater potency.

The chains behind the UniProt entries cited, without tags or fusion partners. Where a name states a change or a piece, a line headed by the entry shows the natural chain unless it says otherwise.
UniProt Q9BWU1: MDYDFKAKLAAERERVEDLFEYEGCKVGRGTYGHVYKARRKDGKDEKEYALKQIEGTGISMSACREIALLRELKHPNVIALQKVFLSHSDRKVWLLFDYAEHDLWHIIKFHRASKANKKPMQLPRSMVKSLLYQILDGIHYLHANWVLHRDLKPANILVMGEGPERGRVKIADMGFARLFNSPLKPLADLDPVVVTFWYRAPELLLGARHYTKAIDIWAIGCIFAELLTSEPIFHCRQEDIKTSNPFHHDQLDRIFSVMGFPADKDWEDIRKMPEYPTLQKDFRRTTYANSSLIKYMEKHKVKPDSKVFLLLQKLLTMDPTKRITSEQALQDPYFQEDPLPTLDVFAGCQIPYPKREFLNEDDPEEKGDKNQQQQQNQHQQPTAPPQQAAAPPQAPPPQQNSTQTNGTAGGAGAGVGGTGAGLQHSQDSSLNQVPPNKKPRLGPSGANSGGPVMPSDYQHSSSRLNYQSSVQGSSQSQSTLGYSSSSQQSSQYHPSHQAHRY

The target of the test is T1, CDK19 (Homo sapiens, UniProt Q9BWU1).
T1 construct: purchased Proteros Biostructures GmbH (Germany), assay service
The test can be described thus: CDK19 reporter displacement assay. In kind it is binding. The following applies: mean ± s.d. (at least three) or *± range (two repeats).

`CN1CCN(C(=O)c2ccc3cc(CCNc4ncnc5ccc(C#N)cc45)ccc3c2)CC1` [Senexin B, reference compound] gave an IC50 of 30.4 ± 1.7 nM.

For the origin of these results see article PMC5224920, “Assessing the mechanism and therapeutic potential of modulators of the human Mediator complex-associated protein kinases” (eLife, 2016).
